The text below walks through data of patent publication US10301272B2.

The chains behind the UniProt entries cited, without tags or fusion partners. Residues count along the entry.
UniProt P51449, whole entry: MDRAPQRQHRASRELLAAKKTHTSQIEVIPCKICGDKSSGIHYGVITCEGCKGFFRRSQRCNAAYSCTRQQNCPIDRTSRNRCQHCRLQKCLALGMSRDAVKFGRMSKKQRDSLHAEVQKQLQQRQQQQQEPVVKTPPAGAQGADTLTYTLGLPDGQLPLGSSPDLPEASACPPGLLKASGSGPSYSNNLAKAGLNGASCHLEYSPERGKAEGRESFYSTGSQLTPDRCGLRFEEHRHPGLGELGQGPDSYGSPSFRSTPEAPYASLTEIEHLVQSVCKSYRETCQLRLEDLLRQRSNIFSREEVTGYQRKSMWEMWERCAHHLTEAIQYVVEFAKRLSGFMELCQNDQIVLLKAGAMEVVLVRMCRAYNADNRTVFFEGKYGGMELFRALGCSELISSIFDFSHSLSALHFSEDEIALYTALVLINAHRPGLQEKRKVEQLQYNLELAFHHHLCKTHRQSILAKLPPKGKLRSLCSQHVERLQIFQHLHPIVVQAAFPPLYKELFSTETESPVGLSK
UniProt P51449, 269-508 limits assumed: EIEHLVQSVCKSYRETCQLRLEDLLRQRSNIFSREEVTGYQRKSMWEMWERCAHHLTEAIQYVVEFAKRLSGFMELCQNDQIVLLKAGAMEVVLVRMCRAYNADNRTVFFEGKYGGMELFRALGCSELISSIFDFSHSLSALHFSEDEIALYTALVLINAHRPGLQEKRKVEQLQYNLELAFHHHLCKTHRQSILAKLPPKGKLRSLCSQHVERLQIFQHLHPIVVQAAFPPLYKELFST

The target of experiment [1] is RORγ (Homo sapiens, UniProt P51449).
The target of experiment [2] is RORγ ligand binding domain (LBD) (Homo sapiens (Human), UniProt P51449). Briefly: TR-FRET Activity Assay (ligand sensing assay, LANCE). The following applies: interaction of RORγ-LBD with coactivator peptide. (In general: In TR-FRET formats the signal depends on donor and acceptor labels being close together.)

For `CC(C)(O)CNC(=O)c1nc(C(=O)N2CCC(C)(C)CC2)c(-c2ccc(S(=O)(=O)NC(C)(C)C)c3ccccc23)s1`, in experiment [1], the “pIC50 (FF)” value is listed as 5.9/7.6/7.5 and the “pIC50 (REN)” value is given as 5.9/7.6/7.5. Besides, the “pIC50 (FRET)” value in experiment [2] is listed as 5.9/7.6/7.5.
In the case of `CCc1nc(C(=O)N2CC3(CCOCC3)C2)sc1-c1ccc(S(=O)(=O)NC(C)(C)C)c2ccccc12`, in experiment [1], the “pIC50 (FF)” value is 5.9/6.8/6.9 and the “pIC50 (REN)” value is 5.9/6.8/6.9. The “pIC50 (FRET)” value in experiment [2] is listed as 5.9/6.8/6.9.
With `O=C(NC1CCS(=O)(=O)CC1)c1nc(CC2CCCCC2)c(-c2ccc(C3(O)COC3)c3ccccc23)s1`, in experiment [1], the “pIC50 (FF)” value is listed as 5.7/6.3/6.2 and the “pIC50 (REN)” value is 5.7/6.3/6.2. Further, the “pIC50 (FRET)” value in experiment [2] is reported as 5.7/6.3/6.2.
In the case of `CC(C)(C)c1cc(C(C)(C)C)nc(-c2sc(C(=O)N[C@H]3C[C@H](C(=O)O)C3)nc2CC2CCCCC2)n1`, in experiment [1], the “pIC50 (FF)” value is listed as 6.4/6.7/6.4 and the “pIC50 (REN)” value is listed as 6.4/6.7/6.4. In addition, the “pIC50 (FRET)” value in experiment [2] was 6.4/6.7/6.4.
